# Patent US8268836B2, “Compound useful as a c-Met inhibitor” (Eli Lilly and Company, priority 2010, dated 2012)
# By UniProt entry, the sequences of proteins in these tests, tags left out. Residues count along the entry.
# UniProt P08581, 25-1390 limits assumed: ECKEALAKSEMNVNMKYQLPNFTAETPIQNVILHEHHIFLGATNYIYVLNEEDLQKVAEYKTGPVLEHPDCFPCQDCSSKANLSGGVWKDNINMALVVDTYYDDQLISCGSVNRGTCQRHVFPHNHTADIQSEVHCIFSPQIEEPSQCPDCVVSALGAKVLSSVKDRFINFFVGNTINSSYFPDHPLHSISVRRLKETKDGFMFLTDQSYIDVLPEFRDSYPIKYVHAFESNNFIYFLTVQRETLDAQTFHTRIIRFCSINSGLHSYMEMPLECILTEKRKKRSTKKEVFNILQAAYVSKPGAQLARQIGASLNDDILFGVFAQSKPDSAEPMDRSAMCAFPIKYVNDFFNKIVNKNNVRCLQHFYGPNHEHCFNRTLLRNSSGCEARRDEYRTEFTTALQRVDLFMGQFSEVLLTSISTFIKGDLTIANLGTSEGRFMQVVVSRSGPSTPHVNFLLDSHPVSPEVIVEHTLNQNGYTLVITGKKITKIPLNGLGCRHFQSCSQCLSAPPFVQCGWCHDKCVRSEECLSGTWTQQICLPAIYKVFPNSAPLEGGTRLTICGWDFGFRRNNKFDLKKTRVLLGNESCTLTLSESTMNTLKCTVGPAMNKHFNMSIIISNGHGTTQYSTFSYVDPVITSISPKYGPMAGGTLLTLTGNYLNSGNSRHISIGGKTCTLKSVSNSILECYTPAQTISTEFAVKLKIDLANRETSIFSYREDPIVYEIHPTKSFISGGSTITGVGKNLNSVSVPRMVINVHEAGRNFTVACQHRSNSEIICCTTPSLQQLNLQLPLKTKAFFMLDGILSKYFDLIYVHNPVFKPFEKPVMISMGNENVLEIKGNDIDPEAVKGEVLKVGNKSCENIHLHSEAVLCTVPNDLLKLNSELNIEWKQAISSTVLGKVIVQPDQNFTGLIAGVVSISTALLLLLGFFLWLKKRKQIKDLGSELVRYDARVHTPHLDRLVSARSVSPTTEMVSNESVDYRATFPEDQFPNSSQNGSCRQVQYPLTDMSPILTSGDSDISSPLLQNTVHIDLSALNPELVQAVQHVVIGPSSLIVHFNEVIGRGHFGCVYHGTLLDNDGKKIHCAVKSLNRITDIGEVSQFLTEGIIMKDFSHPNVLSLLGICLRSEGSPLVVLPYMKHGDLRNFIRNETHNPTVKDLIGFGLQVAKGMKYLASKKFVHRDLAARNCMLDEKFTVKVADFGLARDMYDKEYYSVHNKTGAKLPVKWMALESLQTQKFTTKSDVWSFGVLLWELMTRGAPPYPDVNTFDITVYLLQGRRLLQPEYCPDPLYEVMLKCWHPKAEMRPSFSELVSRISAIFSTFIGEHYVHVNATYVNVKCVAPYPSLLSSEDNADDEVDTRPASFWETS
# Key:
# [1] = molecular target: Met (pY1349) in NCl-H460 cells (Homo sapiens, UniProt P08581); assay: HGF stimulated Met (pY1349) NCI-H460 cell-based ELISA; conditions: read-out: relative IC50, H460 assay (c-Met phosphorylation); HGF 100 ng/mL stimulated NCI-H460 cells
# Description: NCl—H460 cells (purchased from ATCC) are cultured in RPMI 1640 media (Invitrogen) supplemented with 10% Fetal Bovine Serum (FBS) and plated (prior to becoming 70% confluent) in 96-well flat-bottom plates at a density of 20,000 cells per well in 80 μL volume. The cells are then incubated overnight in a cell culture incubator (5% CO2, 95% Relative Humidity (RH) and 37° C.) and allowed to attach to the plate. The following morning the cells are washed with 2 volumes of a Reduced Serum Media (RSM, RPMI 1640 media supplemented with 0.5% FBS). After removal of the last wash, 80 μL of RSM is added to each well of the cell plates. The cell plates are incubated for 2.5 h in a cell culture incubator, and then dosed with compounds. Compound inhibitors are first solubilized at 10 mM in 100% DMSO and then diluted to 100 μM with 2% DMSO RSM. […] After 1 h capture (at RT) the MSD® plate wells are washed with 1× Tris Wash Buffer, and then 150 μL of 1× Read Buffer T (with surfactant, MSD®) is added. Immediately after the addition of the Read Buffer, the plates are analyzed with a SECTOR 6000 MSD® Imager plate reader. Relative IC50 values are determined using MSD activity units by calculating percent inhibition with respect to on-plate “MIN” and “MAX” controls and then fitting the percent inhibition values and ten-point dose response data to a four-parameter logistic equation.
# Dynamic solubility = assay: Dynamic solubility
# Description: The solubility of Example 1 and the reference compound (example 25 of the '808 publication) are measured by placing a small quantity of each in a glass vial, capping and rotating the vial overnight at ambient conditions (18 h). The media included simulated gastric fluid (SGF) which comprise of 0.01N HCl, 0.05% sodium lauryl sulfate, and 0.2% NaCl; fasted state simulated intestinal fluid (SIF-fasted) which composed of 29 mM NaH2PO4, 3 mM Na taurocholate, 0.75 mM lecithin, 103 mM NaCl, and NaOH to pH 6.5; fed state simulated intestinal fluid (SIF-fed) which comprise of 144 mM acetic acid, 15 mM Na taurocholate, 3.75 mM lecithin, 204 mM NaCl, and NaOH to pH 5.0; and pH 4.5, 6, 7.5 buffers which are 28-56 mM phosphate buffers. The compound concentrations are determined using Agilent 1200 HPLC (LC5) with a UV detector. Mobile phase uses A (85%) which is water containing 0.1% TFA and B (15%) which is ACN at a flow rate of 1 mL/min and run time of 10 min. Column of Zorbax, Bonus-RP (3.5 μm, 4.6×75 mm; SN: USTM002428) is used in the studies.
smiles,measurement,setting,value
Cn1cc(-c2ccc3nnc(Sc4ccc5ncn(C)c5c4)n3n2)cn1,IC50,[1],65 nM
same,"Dynamic solubility, 0.01N HCl",Dynamic solubility; 0.01N HCl,332 µg/mL
same,"Dynamic solubility, 0.1N HCl",Dynamic solubility; 0.1N HCl,1894 µg/mL
same,"Dynamic solubility, SIF Fasted","Dynamic solubility; fasted state simulated intestinal fluid pH 6.5, 18 h ambient",1 µg/mL
same,"Dynamic solubility, SIF Fed","Dynamic solubility; fed state simulated intestinal fluid pH 5.0, 18 h ambient",5 µg/mL
same,"Dynamic solubility, pH ≧ 4 buffer",Dynamic solubility; pH ≧ 4 phosphate buffer,~0.002 mg/mL
same,"Dynamic solubility, SGF","Dynamic solubility; simulated gastric fluid, 18 h ambient",57 µg/mL
same,"Dynamic solubility, Water",Dynamic solubility; water,1 µg/mL
